One test concerns the target T1, CBL (Homo sapiens, UniProt P22681).
T1 construct: the DNA-tagged SH2 domain concentrations used in this study were <0.1 nM; made in house; host or cells: HEK293 (transient transfection; unpurified extract)
T1 sequence (P22681 249-351 limits assumed): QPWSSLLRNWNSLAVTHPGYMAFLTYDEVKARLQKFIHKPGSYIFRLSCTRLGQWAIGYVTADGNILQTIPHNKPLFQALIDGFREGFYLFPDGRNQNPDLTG
Briefly: biochemical. The following applies: read-out: percent of DMSO vehicle control. Format: binding.

In the next test the target is T2, SYK(SH2dom1.dom2.) (Homo sapiens, UniProt P43405).
T2 construct: the SH2 domains for these targets are expressed in tandem constructs; made in house; host or cells: HEK293 (transient transfection), unpurified extract
Briefly: biochemical. Format: binding.

In the case of `CC(C)(C)[C@H](NC(=O)/C=C/c1ccc(OP(=O)(O)O)cc1)C(=O)N1CCC[C@H]1C(=O)N(c1ccccc1)c1ccc(I)cc1` [STAT6-IN-3], at CBL, the remaining activity at 10 µM turned out to be 73.9 ± 11.4%.

For the molecule `CC[C@H](C)[C@H](NC(=O)[C@H](CCC(=O)O)NC(=O)[C@H](CCC(=O)O)NC(=O)[C@H](Cc1ccc(OP(=O)(O)O)cc1)NC(=O)/C=C/c1ccc(O)c(O)c1)C(=O)N[C@@H](CCC(=O)O)C(=O)O` [Caffeic acid-pYEEIE], the remaining activity at 10 µM at CBL stood at 32.7 ± 4.1%.

On SYK(SH2dom1.dom2.), `CC(=O)N[C@@H](CC(N)=O)C(=O)N[C@@H](CCC(N)=O)C(=O)N[C@@H](CC(C)C)C(=O)N[C@@H](Cc1ccc(OP(=O)(O)O)cc1)C(=O)N[C@@H](CC(N)=O)C(=O)N[C@@H](CCC(=O)O)C(=O)N[C@@H](CC(C)C)C(=O)N[C@@H](CC(N)=O)C(=O)N[C@@H](CC(C)C)C(=O)NCC(=O)N[C@@H](CCCN=C(N)N)C(=O)N[C@@H](CCCN=C(N)N)C(=O)N[C@@H](CCC(=O)O)C(=O)N[C@@H](CCC(=O)O)C(=O)N[C@@H](Cc1ccc(OP(=O)(O)O)cc1)C(=O)N[C@@H](CC(=O)O)C(=O)N[C@H](C(=O)N[C@@H](CC(C)C)C(=O)N[C@@H](CC(=O)O)C(N)=O)C(C)C` displayed a Kd of 7 ± 2.05 nM.

With `NC(=O)CC[C@H](NC(=O)[C@@H]1CC[C@@H]2CCN(C(=O)CCCCCC#Cc3cccc4c3CN(C3CCC(=O)NC3=O)C4=O)C[C@H](NC(=O)c3cc4cc(C(F)(F)P(=O)(O)O)ccc4[nH]3)C(=O)N21)C(=O)NC(c1ccccc1)c1ccccc1` (stereo partly drawn) [SD-36], the remaining activity at 10 µM at CBL amounted to 68.3 ± 19.5%.

As to `O=C(CCl)Nc1cccc(CNC(=O)[C@H](Cc2ccc(OP(=O)(O)O)cc2)NC(=O)Cc2ccc(F)cc2)c1` [MN551], the remaining activity at 10 µM on CBL is 38.9 ± 1.8%.

For `O=C(COc1ccc2cc(C(=O)Nc3ccccc3)ccc2c1)NCc1ccc(OP(=O)(O)O)c(OP(=O)(O)O)c1` [Stafib-1], the remaining activity at 10 µM at CBL was 85.6 ± 14.2%.

`CC(=O)N1CC[C@H]2CC[C@@H](C(=O)N[C@@H](CCC(N)=O)C(=O)NC(c3ccccc3)c3ccccc3)N2C(=O)[C@@H](NC(=O)c2cc3cc(C(F)(F)P(=O)(O)O)ccc3[nH]2)C1` [SI-109]: at CBL, the remaining activity at 10 µM came to 101%.

Turning to `C/C(=C\C(=O)N[C@H](C(=O)N1CCC[C@H]1C(=O)N(c1ccccc1)c1ccc(I)cc1)C(C)(C)C)c1ccc(OP(=O)(O)O)cc1` [STAT6-IN-1], the remaining activity at 10 µM at CBL turned out to be 24.3 ± 1%.

As to `CC(=O)N[C@@H](Cc1ccc(CP(=O)(O)O)cc1)C(=O)NC1(C(=O)N[C@@H](CC(N)=O)C(=O)NCCCc2c(O)ccc3ccccc23)CCCCC1` [CGP78850], the remaining activity at 10 µM on CBL was found to be 76.7 ± 17.1%.

As usually defined, the Kd is the constant that tells how readily two partners part at equilibrium.

(Values after paper PMC12951562, “SH2scan: Mapping SH2 Domain-Ligand Binding Selectivity for Inhibitors and Degraders” (Journal of Medicinal Chemistry, 2026).)
